Target: Adenosine receptor A2a (Homo sapiens, UniProt P29274)

`Nc1nnc(-c2ccccc2)c(-c2ccccc2)n1` was tested, and the Ki was 115 nM.

— ChEMBL document CHEMBL3259781 (J Med Chem, 2014)
